{"source": "PubChem BioAssay AID588856", "about": "(National Center for Advancing Translational Sciences (NCATS), 2011)", "note": "Where “and” joins values, the source holds several entries; their conditions need not be identical. Identical values can stand only once. The list shows a part of the results, in another mix than the full data. Some tests of the compounds listed are not included; inactive here does not mean inactive elsewhere. Calls of active or inactive are those of the source. Calls follow the shape of the dose curve; as a rule, active = well fitted cell-killing curve with a large enough effect; inactive = no such curve, though single readings can be large or run the other way.", "data": [{"assay": "qHTS for Inhibitors of TGF-b: Cytotox Counterscreen", "settings": "HepG2 CAGA-GFP viability, ATP luminescence, 18 h; at 46.1 µM (top of the series)", "text": "TGF-b is a main component in the TGF-b signaling pathway which plays diverse roles in cellular and development pathways. TGF-b is mediated by transcription factors called \"Smads\". Although the Smad-dependent pathway is the primary canonical TGF-b signaling mode, TGF-b1 can also activate alternative signaling pathways, including those involving MAPK (ERK, JNK and p38). This interaction may mediate or enhance Smad-dependent responses, or can exert Smad-independent effects. The complexity of this signaling cascade allows the TGF-b superfamily to perform unique, overlapping or redundant functions. We believe that targeting the TGF-beta pathway at the Smad-transcription factor level may eliminate the consequences of disrupting the entire pathway and offer specificity without affecting other signaling pathways. Smad3 is the primary transducer of TGF-b's signals and Smad3 regulates many functions attributed to TGF-b signaling. We hypothesize that Smad3 inhibitors will selectively eliminate Smad3-specific TGF-beta signals without undesired off-target effects. We aim to identify Smad3-small molecule antagonists using a quantitative high throughput screening (qHTS) approach.\nA high-throughput assay was developed to screen the NIH Molecular Libraries Small Molecule Repository (MLSMR). This is a cell based assay, where TGF-b is tagged with GFP. This is a counterscreen that evaluates the cytotoxicity of the compounds that were screened in the primary cell-based screen (AID 588855).\nMH087449NIH Chemical Genomics Center [NCGC]\nNIH Molecular Libraries Probe Centers Network [MLPCN]\nAssay Submitter (PI): Sushil Rane, National Institute of […]\nSuspensions of trypsinized HEPG2 CAGA-GFP cells were dispensed into white, tissue culture-treated, solid 1536-well plates at 5uL/well (1000 cells/well final concentration) in DMEM medium supplemented with 1% FBS. Plates were incubated at 37 degrees C for 2 hours, after which 23 nL of compounds or DMSO were delivered to each well using a pin tool. One uL of recombinant TGF-beta in DMEM (1% FBS) was then dispensed (500 pg/mL final concentration), and plates were incubated at 37 degrees C for 18 hours. Two uL of CellTiter Glo (Promega), a luminescence-based viability reagent, was dispensed, followed by a 10 minute room temperature incubation. The plates were then measured on a PerkinElmer ViewLux plate reader for luminescence (clear filter) using a 5 second exposure. The %Activity was determined from the corrected luminescence values. Wells containing media only (no cells) were used to normalize %Activity of identified toxic compounds; media-only wells corresponded to 100%Activity (complete cell-killing), while DMSO-dosed cell controls were used to normalize 0%Activity (no toxicity).\nConcentration-response curves were fitted to the signals arising from the resulting luminescence. The concentration-effect curves were then classified based on curve quality (r2), response magnitude and degree of measured activity, and compounds were subsequently categorized based on their curve class.", "values": [{"smiles": "COc1cc(C(=O)NCC2(N(C)C)CCCCC2)c([N+](=O)[O-])cc1OC", "activity change, negative = cytotoxicity": "inactive: -13.5%"}, {"smiles": "CN(C)C1(CNC(=O)c2ccc(Br)cc2)CCCCC1", "activity change, negative = cytotoxicity": "inactive: -20.1%"}, {"smiles": "O=C(CBr)c1ccc(Cl)cc1", "activity change, negative = cytotoxicity": "inactive: -33.2%"}, {"smiles": "O=C(NCC1(N2CCCCC2)CCCCC1)c1cccc(Cl)c1", "activity change, negative = cytotoxicity": "inactive: -8.3%"}, {"smiles": "COc1ccc(C(=O)NCC2(N(C)C)CCCCC2)cc1Cl", "activity change, negative = cytotoxicity": "inactive: -8.32%"}, {"smiles": "COc1cccc(C(=O)NCC2(N3CCCCC3)CCCCC2)c1", "activity change, negative = cytotoxicity": "inactive: 1.94%"}, {"smiles": "COc1ccc(Cl)cc1C(=O)NCC1(N(C)C)CCCCC1", "activity change, negative = cytotoxicity": "inactive: -16.6%"}, {"smiles": "CC(C)COc1ccc(C(=O)NCC2(N(C)C)CCCCC2)cc1", "activity change, negative = cytotoxicity": "inactive: -46.4%"}, {"smiles": "O=C(OC1CN2CCC1CC2)C(CO)(c1ccccc1)c1ccccc1", "note": "(configuration not stated)", "activity change, negative = cytotoxicity": "inactive: -4.86%"}, {"smiles": "COc1cccc(C(=O)NCC2(N3CCOCC3)CCCCC2)c1", "activity change, negative = cytotoxicity": "inactive: -26.6%"}, {"smiles": "CN(C)c1cccc(C(=O)NCC2(N(C)C)CCCCC2)c1", "activity change, negative = cytotoxicity": "inactive: -12.6%"}, {"smiles": "CC(C)Oc1ccc(C(=O)NCC2(N(C)C)CCCCC2)cc1", "activity change, negative = cytotoxicity": "inactive: -25.7% and inactive: -13.1%"}, {"smiles": "O=C(OCCN1CCCC1)C(O)(c1ccccc1)c1ccccc1", "activity change, negative = cytotoxicity": "inactive: -4.28%"}, {"smiles": "COc1cc(C(=O)NCC2(N(C)C)CCCCC2)cc(OC)c1OC", "activity change, negative = cytotoxicity": "inactive: 7.44%"}, {"smiles": "Cc1cccc(C(=O)NCC2(N(C)C)CCCCC2)c1", "activity change, negative = cytotoxicity": "inactive: 0.355%"}, {"smiles": "COc1ccc(Br)c(C(=O)NCC2(N3CCCCC3)CCCCC2)c1", "activity change, negative = cytotoxicity": "inactive: -24.4%"}, {"smiles": "C=C(C)C#CC(O)(C(=O)OC1CCN(C)CC1)c1ccccc1", "note": "(configuration not stated)", "activity change, negative = cytotoxicity": "inactive: -0.539%"}, {"smiles": "CN1[C@@H]2CC[C@H]1CC(OC(=O)C(O)(c1ccccc1)c1ccccc1)C2", "note": "(some centres not stated)", "activity change, negative = cytotoxicity": "inactive: -17.8%"}, {"smiles": "O=C(NCC1(N2CCCCC2)CCCCC1)c1cc([N+](=O)[O-])ccc1Cl", "activity change, negative = cytotoxicity": "inactive: -3.63%"}, {"smiles": "CN(C)C1(CNC(=O)c2ccccc2F)CCCCC1", "activity change, negative = cytotoxicity": "inactive: -15.4%"}, {"smiles": "Cc1ccc(C(=O)NCC2(N3CCCCC3)CCCCC2)cc1", "activity change, negative = cytotoxicity": "inactive: -11.9%"}, {"smiles": "CC(C)N1C(=O)CC2(CCN(CCOC(=O)C(O)(c3ccccc3)c3ccccc3)CC2)C1=O", "activity change, negative = cytotoxicity": "inactive: 2.75%"}, {"smiles": "CN(C)C1(CNC(=O)c2cccc(Cl)c2)CCCCC1", "activity change, negative = cytotoxicity": "inactive: -14.9%"}, {"smiles": "CCN(CC)CC(C)C(C)OC(=O)C(O)(c1ccccc1)c1ccccc1", "note": "(configuration not stated)", "activity change, negative = cytotoxicity": "inactive: 2.81%"}, {"smiles": "COc1cc(SC)ccc1C(=O)NCC1(N(C)C)CCCCC1", "activity change, negative = cytotoxicity": "inactive: 2.36%"}, {"smiles": "CCCCOc1ccccc1C(=O)NCC1(N(C)C)CCCCC1", "activity change, negative = cytotoxicity": "inactive: -61.6%"}, {"smiles": "CN(C)C1(CNC(=O)c2ccccc2[N+](=O)[O-])CCCCC1", "activity change, negative = cytotoxicity": "inactive: -26.6%"}, {"smiles": "Cc1ccccc1C(=O)NCC1(N2CCCCC2)CCCCC1", "activity change, negative = cytotoxicity": "inactive: -0.98%"}, {"smiles": "CN(C)C1CCCC1OC(=O)C(O)(c1ccccc1)c1ccccc1", "note": "(configuration not stated)", "activity change, negative = cytotoxicity": "inactive: 8.57%"}, {"smiles": "CN(C)c1ccc(C(=O)NCC2(N(C)C)CCCCC2)cc1", "activity change, negative = cytotoxicity": "inactive: 5.21%"}, {"smiles": "Cc1cc(C(=O)NCC2(N3CCCCC3)CCCCC2)ccc1[N+](=O)[O-]", "activity change, negative = cytotoxicity": "inactive: -7.8%"}, {"smiles": "CCN1CCCC(OC(=O)C2(O)c3ccccc3C=Cc3ccccc32)C1", "note": "(configuration not stated)", "activity change, negative = cytotoxicity": "inactive: 0.0035%"}, {"smiles": "O=C(NCC1(N2CCCCC2)CCCCC1)c1cccc(Br)c1", "activity change, negative = cytotoxicity": "inactive: -12.2%"}, {"smiles": "COc1ccc(C(=O)NCC2(N(C)C)CCCCC2)cc1", "activity change, negative = cytotoxicity": "inactive: 8.89%"}, {"smiles": "CCOc1cccc(C(=O)NCC2(N(C)C)CCCCC2)c1", "activity change, negative = cytotoxicity": "inactive: -2.27%"}, {"smiles": "C=CCN1CCN(CCOC(=O)C(O)(c2ccccc2)c2ccccc2)CC1", "activity change, negative = cytotoxicity": "inactive: 9.27%"}, {"smiles": "O=C(NCC1(N2CCCCC2)CCCCC1)c1cc(F)c(F)cc1Cl", "activity change, negative = cytotoxicity": "inactive: 4.76%"}]}]}
